# Assay results reported in US20200405697A1, “Antitumor Agent” (Taiho Pharmaceutical Co., Ltd, priority 2017, published 2020).
# Legend:
# [1] = test system: MV-4-11 (Human blood cancer cell line); assay: Effect of combination of sulfonamide compound and other antitumor agent (CellTiter-Glo, combination index): MV-4-11
# [2] = test system: A549 (Human lung cancer cell line); assay: Effect of combination of sulfonamide compound and other antitumor agent (CellTiter-Glo, combination index): A549
# [3] = test system: CFPAC-1 (Human pancreatic cancer cell line); assay: Effect of combination of sulfonamide compound and other antitumor agent (CellTiter-Glo, combination index): CFPAC-1;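 also: cells exposed to both agents together for 3 days, viability read by luminescence, normalized to vehicle-treated control wells, mean of triplicate wells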
# [4] = Example Compound 209A 145 nM + Decitabine 75.2 nM
# [5] = Example Compound 235A 203 nM + Decitabine 75.3 nM
# [6] = Example Compound 1 633 nM + Cytarabine 162 nM, molar ratio 1:0.2566
# [7] = Example Compound 1 633 nM + Decitabine 1330 nM, molar ratio 1:2.108
# [8] = Example Compound 1 273 nM + Cytarabine 262 nM, molar ratio 1:0.9614
# [9] = Example Compound 1 507 nM + Gemcitabine 3.52 nM, molar ratio 1:0.006950
# [10] = Example Compound 5 700 nM + Gemcitabine 3.52 nM
# [11] = Example Compound 209A 423 nM + Guadecitabine 489 nM
# [12] = Example Compound 209A 145 nM + Guadecitabine 26.8 nM
# [13] = Example Compound 235A 203 nM + Guadecitabine 26.8 nM
# [14] = Example Compound 209A 423 nM + Prexasertib 4.44 nM
# [15] = Example Compound 209A 339 nM + Prexasertib 4.26 nM
compound,measurement,setting,value
"Nc1ncn([C@H]2C[C@H](O)[C@@H](CO)O2)c(=O)n1 [Decitabine, decitabine]",CI value,[1]; [4],0.790
same,Fa value,[1]; [4],0.6143
same,CI value,[1]; [5],0.764
same,Fa value,[1]; [5],0.5302
"Cc1ccc(F)c([C@@H](C)[C@H](NS(=O)(=O)c2ccc(Br)cc2C(N)=O)c2n[nH]c(=O)o2)c1C [Example 1, 5-bromo-2-(N-((1 S,2R)-2-(6-fluoro-2,3-dimethylphenyl)-1-(5-oxo-4,5-dihydro-1,3,4-oxadiazol-2-yl)propyl)sulfamoyl)benzamide]",CI value,[2]; [6],0.614
same,Fa value,[2]; [6],0.6164
same,CI value,[2]; [7],0.532
same,Fa value,[2]; [7],0.3872
same,CI value,[1]; [8],0.574
same,Fa value,[1]; [8],0.7678
same,CI value,[3]; [9],0.821
same,Fa value,[3]; [9],0.5009
"Nc1ccn([C@@H]2O[C@H](CO)[C@@H](O)C2(F)F)c(=O)n1 [Gemcitabine, gemcitabine]",CI value,[3]; [10],0.814
same,Fa value,[3]; [10],0.5292
"Nc1ncn([C@H]2C[C@H](OP(=O)(O)OC[C@H]3O[C@@H](n4cnc5c(=O)[nH]c(N)nc54)C[C@@H]3O)[C@@H](CO)O2)c(=O)n1 [Guadecitabine, guadecitabine]",CI value,[2]; [11],0.577
same,Fa value,[2]; [11],0.4525
same,CI value,[1]; [12],0.767
same,Fa value,[1]; [12],0.6306
same,CI value,[1]; [13],0.696
same,Fa value,[1]; [13],0.5802
"COc1cccc(OCCCN)c1-c1cc(Nc2cnc(C#N)cn2)n[nH]1 [Prexasertib, prexasertib]",CI value,[2]; [14],0.169
same,Fa value,[2]; [14],0.8944
same,CI value,[3]; [15],0.704
same,Fa value,[3]; [15],0.7662
